# scFv variants of Ab-14 (heavy chain) against a SARS-CoV-2 spike peptide

Antigen: PDVDLGDISGINAS, a 14-residue peptide of the SARS-CoV-2 spike HR2 region.

Ab-14 is the parent antibody, in scFv form: VH, then a (GGGGS)3 linker, then VL. The light chain is unchanged in all variants.
VH: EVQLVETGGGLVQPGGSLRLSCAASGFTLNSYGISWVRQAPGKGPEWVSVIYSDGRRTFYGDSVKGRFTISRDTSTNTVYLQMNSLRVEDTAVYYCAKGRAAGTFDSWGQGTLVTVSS
VL: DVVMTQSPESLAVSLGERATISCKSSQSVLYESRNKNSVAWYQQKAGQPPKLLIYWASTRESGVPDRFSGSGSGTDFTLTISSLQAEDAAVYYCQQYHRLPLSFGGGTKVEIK

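The parent was found by panning a naive human phage display library on the peptide. In library AAYL49, one, two or three CDR residues were substituted; doubles and triples were drawn at random. The scFvs were displayed on barcoded MATa yeast, the peptide on MATalpha yeast. Pairs that bind mate more often; barcode pairs of the diploids are counted by sequencing. Each replicate has its own calibration line, from reference interactions of the BCL2 family. Mating was done three times.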

Positions count from residue 1 of the parent VH; S31H puts H in place of S.
Numbers give log10(Kd / nM), so 0 is 1 nM and 3 is 1 µM. Smaller is tighter.
An entry "ND" has no value in the source: the pair was not observed among the diploids in that replicate. This suggests poor binding but is not conclusive.
As a blank, each scFv also met three strains without target: over library AAYL49, 15% of these pairings were detected, typically at 4.06 and seldom below 2.83. Also given: how often the same scFv was detected with the empty control strains, with their mean in brackets.
Parent in this assay: reference entry 0.65, copy in this library 4.11 (one replicate of three).

| # | changes | log10 Kd, replicates | empty controls |
|---|---|---|---|
| 1 | S31H G33C D106M | ND ND ND | 3 of 9 (3.50) |
| 2 | R56C A101N | 1.65 1.64 1.64 | 2 of 9 (4.22) |
| 3 | Y32I K65G T104G | ND 3.05 4.11 | 0 of 9 |
| 4 | K65C T104H D106G | ND ND ND | 0 of 9 |
| 5 | D62T V64W G99E | ND ND ND | 0 of 9 |
| 6 | F59L S63V G99I | ND ND ND | 1 of 9 (5.24) |
| 7 | R57H A101W | 2.08 2.26 2.65 | 2 of 9 (5.91) |
| 8 | S35R I51L A101Q | 6.27 ND 6.15 | 4 of 9 (4.19) |
| 9 | S53P R57I T58E | ND 4.14 ND | 3 of 9 (3.76) |
| 10 | S53R K65M S107M | ND ND ND | 1 of 9 (3.47) |
| 11 | I51F R57V A101H | ND ND ND | 1 of 9 (3.08) |
| 12 | S35P Y52P D106F | ND ND ND | 0 of 9 |
| 13 | R100P D106T S107C | 1.14 1.31 1.63 | 1 of 9 (3.72) |
| 14 | L29E G55K S63W | ND ND ND | 1 of 9 (3.36) |
| 15 | I34V Y60I V64P | ND 2.90 ND | 2 of 9 (3.15) |
| 16 | A101T D106N | 0.47 0.76 0.73 | 2 of 9 (4.83) |
| 17 | Y52S T58M A101D | ND ND ND | 5 of 9 (4.72) |
| 18 | V50F I51M R100T | ND ND 3.25 | 0 of 9 |
| 19 | V50M Y52W A101P | ND ND ND | 1 of 9 (4.39) |
| 20 | G26Y V50R F59V | ND ND ND | 0 of 9 |
| 21 | G26C A101W D106A | ND 3.42 3.06 | 1 of 9 (2.54) |
| 22 | Y32V S35Y K65C | ND ND ND | 0 of 9 |
| 23 | L29T V50S D106S | ND ND ND | 2 of 9 (4.15) |
| 24 | T28H T58V D62H | 2.31 2.52 2.41 | 3 of 9 (3.29) |
| 25 | I51W F59K | ND ND ND | 1 of 9 (3.99) |
| 26 | N30K I34C V50T | 4.36 ND 5.78 | 5 of 9 (4.75) |
| 27 | F27T S35M R57Y | ND ND 4.48 | 0 of 9 |
| 28 | R57D A101W S107W | ND ND ND | 0 of 9 |
| 29 | G33Y I34E I51G | ND ND ND | 0 of 9 |
| 30 | V50H A102Y G103R | ND ND ND | 0 of 9 |
| 31 | L29T S35Q D106P | ND ND ND | 2 of 9 (3.17) |
| 32 | N30V S53Y T104E | ND ND ND | 0 of 9 |
| 33 | I34M S63M D106R | ND ND ND | 0 of 9 |
| 34 | Y52E R57D D106P | ND ND 5.09 | 1 of 9 (2.38) |
| 35 | N30L D62N K65Q | 2.14 2.13 ND | 1 of 9 (2.87) |
| 36 | G61Y S63M R100C | ND ND ND | 0 of 9 |
| 37 | N30Y S31E D54G | ND ND ND | 1 of 9 (3.49) |
| 38 | G26R L29V F105L | 1.06 1.39 1.45 | 0 of 9 |
| 39 | I34N G61S A102W | ND 4.07 5.01 | 4 of 9 (4.17) |
| 40 | L29E D54F G61K | ND ND ND | 3 of 9 (3.91) |
| 41 | F27Q Y32L S63E | ND ND 4.63 | 1 of 9 (3.23) |
| 42 | T58E A102F G103S | ND ND ND | 1 of 9 (4.51) |
| 43 | G99S T104R S107D | ND ND ND | 0 of 9 |
| 44 | V50D | ND ND ND | 0 of 9 |

Excerpt, the final 6 entries:

{"changes": "I34N G61S A102W", "log10 Kd, replicates": "ND 4.07 5.01", "empty controls": "4 of 9 (4.17)"}
{"changes": "L29E D54F G61K", "log10 Kd, replicates": "ND ND ND", "empty controls": "3 of 9 (3.91)"}
{"changes": "F27Q Y32L S63E", "log10 Kd, replicates": "ND ND 4.63", "empty controls": "1 of 9 (3.23)"}
{"changes": "T58E A102F G103S", "log10 Kd, replicates": "ND ND ND", "empty controls": "1 of 9 (4.51)"}
{"changes": "G99S T104R S107D", "log10 Kd, replicates": "ND ND ND", "empty controls": "0 of 9"}
{"changes": "V50D", "log10 Kd, replicates": "ND ND ND", "empty controls": "0 of 9"}

From the AlphaSeq antibody data of Engelhart et al. 2022 (doi:10.1038/s41597-022-01779-4), copy in the FLAb collection.